# Experimental data taken from patent US20060263368A1, “Targeted chimeric molecules for cancer therapy” (Research Development Foundation, priority 2005, published 2006).
# Where “and” joins values, the source holds several entries; their conditions need not be identical. Equal entries are not always repeated. Where two headings read alike, the source gives them in different places.
# How the values were obtained:
# [1] = test system: SKBR-3-LP cells; assay: Western blot of TNF receptor expression; format: cell-based, human
# Method: SKBR-3 cells were grown in McCoy's 5A modified medium (DMEM, Life Technologies Inc., Rockville, Md.) supplemented with 10% heat-inactivated fetal bovine serum (FBS), 2 mM L-glutamine, 100 units/ml penicillin and 100 μg/ml streptomycin. […] The L3.6pl human pancreatic cancer cell line was kindly provided by Dr. Killian (M.D. Anderson Cancer Center, Houston, Tex.) and was grown in Dulbecco's modified Eagle's medium (DMEM, Life Technologies Inc.) supplemented with 10% heat-inactivated FBS, 100 units/ml penicillin and 100 μg/ml streptomycin.
# After treatment, cells were washed twice with phosphate buffered saline (PBS) and lysed on ice for 20 min in 0.3 ml of lysis buffer (10 mM Tris-HCl, pH 8, 60 mM KCl, 1 mM EDTA, 1 mM DTT, 0.2% NP-40). Cell lysates (50 μg) were fractionated by 8-15% SDS-PAGE and electrophoretically transferred to Immobilon-P nitrocellulose membranes (Schleicher & Schuell Inc., Keene, N.H.). […] The intensity of the bands was quantified using Histogram.
# [2] = test system: A375-M and AAB-527 cells; assay: Western blot of signaling and PARP cleavage in melanoma cells; format: cell-based, human
# [3] = mice, Kuroda et al., 2000; cited from earlier work
# [4] = test system: L-929 murine fibroblast cells; assay: TNF biologic activity, cytotoxicity in L-929 cells; format: cell-based
# Text: The expression and purification of TNF were the same as that of the fusion protein scFvMEL/TNF. […] The rHuTNFα from Roche Molecular Biochemicals (Indianapolis, Ind.) was used as a standard. The biological activity of the final purified huTNF was 2×10^7 U/mg protein.
# [5] = Pharmacokinetics of 125I-labeled proteins in mice; format: in vivo, BALB/c mice; conditions: i.v.
# [6] = test system: Human neuroglioma H4; assay: Cytotoxicity of scFvMEL/TNF vs TNF, crystal violet; format: cell-based; conditions: 72 h treatment; gp240 (−), TNF-resistant
# [7] = test system: SKBR-3/H; assay: In vitro cytotoxicity, XTT; format: cell-based, human
# Method: SKBR-3 cells were grown in McCoy's 5A modified medium, supplemented with 10% heat-inactivated fetal bovine serum (FBS), 2 mM L-glutamine, 100 units/ml penicillin and 100 μg/ml streptomycin.
# After 72 hr, 50 μl of XTT labeling mixture (Roche) was added to each well, after which the cells incubated for another 4 hr. The spectrophotometric absorbance was measured at 450 nm using an ELISA reader (Bio-Tek Instruments, Inc., Winooski, Vt.).
# [8] = test system: TNF-resistant AAB527 cells; assay: cDNA microarray analysis; conditions: 24 h, 2500 genes
# [9] = test system: AsPc-1; assay: In vitro cytotoxicity and combination study, crystal violet; format: cell-based, human; conditions: 72 hr of exposure
# Text: (§1) If CI near to 1 indicates additive effect (ADD), CI>1 indicates antagonism (ANT), CI<1 indicates synergism (SYN).
# [10] = test system: L3.6pl; assay: as above; format: cell-based, human; conditions: 72 hr of exposure
# Text: as §1
# [11] = test system: Capan-1; assay: as above; format: cell-based, human; conditions: 72 hr of exposure
# Text: as §1
# [12] = test system: Capan-2; assay: as above; format: cell-based, human; conditions: 72 hr of exposure
# Text: as §1
# [13] = test system: AsPc-1, Capan-1, Capan-2, and L3.6pl; conditions: across the four cell lines
# [14] = test system: HER-2-overexpressing SKBR-3/H cells; assay: Western blot, DNA fragmentation, TUNEL: signal transduction effects; format: cell-based, human; set-up: key to Akt / Caspase-8 cleavage / Caspase-3 cleavage / PARP cleavage / DNA fragmentation / TRADD / TRAF-2: NE represents no effect; conditions: 200 nM
# Method: Apoptosis was detected by DNA fragmentation and TUNEL assay. […] After 24 hr and 48 hr, cells were washed with PBS, resuspended in a DNA extraction buffer containing 5 mM Tris-HCl, pH 8, 50 mM EDTA, 10 μg/ml RNAse, and 0.25% SDS and then incubated for 1 hr at 37° C. To remove protein, resuspended cell lysates were treated with 100 μg/ml proteinase K for 3 hr at 50° C. DNA was extracted using phenol and chloroform followed by ethanol precipitation. The genomic DNA was resuspended in Tris-EDTA (pH 8) and was fractionated by electrophoresis on a 1% agarose gel containing ethidium bromide.
# The cells were washed with PBS, permeabilized (0.1% Triton X-100, 0.1% sodium citrate), and then fixed in 4% paraformaldehyde. Fixed cells were stained with in situ cell death detection kit (Roche). Cells undergoing apoptosis were identified by fluorescence microscopy.
# After treatment, cells were washed twice with phosphate buffered saline (PBS) and lysed on ice for 20 min in 0.3 ml of lysis buffer (10 mM Tris-HCl, pH 8, 60 mM KCl, 1 mM EDTA, 1 mM DTT, 0.2% NP-40). Cell lysates (50 μg) were fractionated by 8-15% SDS-PAGE and electrophoretically transferred to Immobilon-P nitrocellulose membranes (Schleicher & Schuell Inc., Keene, N.H.). Membranes were blocked 2 hrs in Tris-buffered saline (TBS) containing 3% bovine serum albumin and then probed with various antibodies (monoclonal anti-HER-2/neu Ab, rabbit polyclonal anti-TNFR1 Ab, rabbit polyclonal anti-TNFR2 Ab, rabbit polyclonal anti-caspase-8 Ab, monoclonal anti-caspase-3 Ab, monoclonal anti-PARP Ab, rabbit polyclonal anti-TRADD Ab, rabbit polyclonal anti-TRAF2 Ab, rabbit polyclonal anti-IκB-α Ab, rabbit polyclonal anti-phospho Akt Ab, and rabbit polyclonal anti-Akt Ab). Goat anti-mouse/goat anti-rabbit or swain anti-goat antibodies conjugated with horseradish peroxidase (Bio-Rad Laboratories, Hercules, Calif.) were used to visualize immunoreactive proteins at a 1:4000 dilution using ECL detection reagent (Amersham Pharmacia Biotech Inc., Piscataway, N.J.).
# [15] = test system: SKBR3-HP cells; assay: Neutralization of cytotoxicity by anti-TNFR1 antibody; format: cell-based, human; conditions: 25 μg/ml antibody
# [16] = test system: A375-M Cells; assay: as above; format: cell-based, human; conditions: 25 μg/ml antibody
substance,measurement,setting,value
Herceptin: humanized anti-HER-2/neu antibody [reference compound],"TNF-R1 expression, increase compared to controls",[1],1.8 fold
"TNF: Tumor necrosis factor, recombinant human TNF-alpha, cytotoxic polypeptide of 17 kDa",PARP cleavage in TNF-resistant AAB-527,"[2]; 24 h, TNF up to 200 nM, scFvMEL/TNF 20 nM",no PARP cleavage
same,SAPK/JNK pathway activation,[2]; A375-M and AAB-527,rapidly stimulated SAPK/JNK activation
same,MTD reported for TNF itself,[3],0.3 mg/kg
same,biological activity,[4],2×10^7 U/mg protein
same,specific activity,[4],26.7×10^6 units/mg protein
same,C × t: the area under the concentration curve,[5],3.51 μ Ci/ml × min
same,Plasma Half Life (α),[5],0.45 h
same,Plasma Half Life (β),[5],2.68 h
same,Vd: volume of distribution,[5],3.9 mL and 3.95 mL
same,area under the concentration curve (c×t),[5],3.5 μCiml-1 min
same,"half-life, α-phase",[5],0.452 h
same,"half-life, β-phase",[5],2.7 h
same,IC50,[6],> 5000 nM
same,IC50,"[7]; 72 hr, read-out: IC50",> 6000 nM
same,IC50,[7]; read-out: IC50 (completely resistant at doses up to),> 6000 nM
same,genes down regulated by both scFvMEL/TNF and TNF,[8],67 genes
same,genes up regulated by both scFvMEL/TNF and TNF,[8],63 genes
same,IC50,[9],> 1600 nM
same,IC50,[10],> 1600 nM
same,IC50,[11],> 1600 nM
same,IC50,[12],> 1600 nM
same,IC50,[13],> 1600 nM
same,Akt,[14],NE
same,Caspase-3 cleavage,[14],NE
same,Caspase-8 cleavage,[14],NE
same,DNA fragmentation,[14],NE
same,IκB-α,[14],↓
same,PARP cleavage,[14],NE
same,TRADD,[14],NE
same,TRAF-2,[14],NE
same,p-Akt,[14],↑
same,neutralization of cytotoxicity by anti-TNFR1,[15],100%
same,neutralization of cytotoxicity by anti-TNFR1,[16],100%
